Measurements reported in patent US20130317009A1 (priority 2012, published 2013).

Key:
[1] = system: male Sprague-Dawley rats; conditions: withdrawal threshold of ipsi-lateral hind paw, first 0.0316 μg/kg, second 1.0 mg/kg, combination 0.0316 μg/kg + 1.0 mg/kg, Mean ± SEM, n = 10
[2] = system: rat; assay: Randall Selitto test in rats (carrageenan oedema, inflammatory pain); assay type: in vivo; conditions: applied alone

CN(C)[C@]1(c2ccccc2)CC[C@]2(CC1)OCCc1c3cc(F)ccc3[nH]c12
% MPE (Maximum possible effect) 30 min. ([1]; 30 min after i.v. administration): 20.7 % MPE and 20.7 ± 12.4 % MPE | % MPE (Maximum possible effect) 60 min. ([1]; 60 min after i.v. administration): 8.2 ± 10.6 % MPE | % MPE (Maximum possible effect) 180 min. ([1]; 180 min after i.v. administration): −1.3 ± 6.0 % MPE | ED50 (95% CI) first pharmacologically active ingredient ([2]; i.v., 15 min p. appl. (peak effect)): 3.48 μg/kg | timepoint of peak effect ([2]; first i.v., second i.p., timepoint of first measurement): 15 min p. appl.

“And” between values parts separate entries of the source, which are not always exact repeats. Equal entries are not always repeated.
